US20140187771A1, “AMORPHOUS SOLID SALTS” (Gilead Sciences, Inc., priority 2011, published 2014)

Legend:
[1] = Hygroscopicity at room temperature (weight gain and visual phase transition after 24 hours at controlled RH); type: physicochemical; conditions: for Phase transition: visual observation
Description: Hygroscopicity of salts of invention were measured by placing 20-50 mg of the sample in an uncapped scintillation vial. The vial was stored at ambient temperature in a Pyrex brand desiccator (VWR, International, CT). […] The relative humidity was confirmed using a digital hygrometer pen (VWR International, CT). An empty scintillation vial was also placed in the desiccator as a control. […] Visual observation of phase transition was also noted.

[2] = Glass transition temperature (Tg) by modulated differential scanning calorimetry (mDSC); type: physicochemical; conditions: precipitated salts of Compound 1; for Tg (° C.) First heating: first heating cycle; for Tg (° C.) Second heating: second heating cycle (intrinsic Tg in dry state)
Description: Modulated differential scanning calorimetry (mDSC) was used to characterize salts of the invention. Solid samples were placed in hermetically sealed aluminum pan with a pinhole. Modulation amplitude of ±0.8° C. with a period of 60 sec was applied to the sample heated at 2° C./min under dried nitrogen purge using TA instruments (New Castle, Del., USA) model 1000.
Heat-cool-heat cycles were applied to allow for moisture evaporation during first heating cycle and to erase thermal history of the sample, which allowed for the determination of the intrinsic glass transition temperature (Tg) in dry state.

Substance | % weight gain ([1]; 55% RH) | Phase transition ([1]; 55% RH) | % weight gain ([1]; 75% RH) | Phase transition ([1]; 75% RH) | Tg (° C.) First heating [2] | Tg (° C.) Second heating [2]
bromide | 3.24% | No | 6.0% | Yes | 68 °C | 68 °C
nicotinate |  | Yes |  | Yes | 19.6 °C | 36 °C
